Measurements reported in publication PMC8513079 (Molecules, 2021).

Amino acid sequences for entries named in this document (tags omitted).
UniProt P41145, whole entry: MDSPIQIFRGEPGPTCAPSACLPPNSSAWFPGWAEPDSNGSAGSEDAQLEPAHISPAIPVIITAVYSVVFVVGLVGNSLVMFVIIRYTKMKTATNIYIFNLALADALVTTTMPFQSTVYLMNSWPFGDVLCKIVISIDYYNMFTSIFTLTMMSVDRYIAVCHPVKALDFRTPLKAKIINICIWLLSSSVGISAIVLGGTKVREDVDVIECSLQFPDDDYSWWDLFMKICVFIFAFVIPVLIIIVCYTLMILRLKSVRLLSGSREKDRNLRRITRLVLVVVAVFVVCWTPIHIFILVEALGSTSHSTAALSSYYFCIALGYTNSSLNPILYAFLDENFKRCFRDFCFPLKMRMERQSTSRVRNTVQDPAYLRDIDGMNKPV

Target: KOR (Halotag-KOR) in HEK293 cells (Homo sapiens, UniProt P41145)
Experiment: cADDis cAMP assay, KOR
Type: cell-based

CN1CC[C@]23Cc4nc5ccccc5cc4C[C@@]2(O)[C@H]1Cc1ccc(O)cc13
Emax, cAMP assay, KOR (Table 1): 102.5 ± 9.5%
pEC50, cAMP assay, KOR (Table 1): 6.5 ± 0.2 M
effect through G-protein-mediated pathway (cAMP), KOR, in words (cADDis cAMP assay, HEK293 Halotag-KOR): full agonistic effects on both MOR and KOR
